Source: PubChem BioAssay (Broad Institute)
Most compounds without a hit are left out; they make up all but 1.3% or so of the library.
EWS-Fli block: inhibitors of EWS/Fli oncoprotein transcriptional activity | A673 NR0B1-luciferase reporter, viability-normalised | inhibition, % at 12.6 µM | 350,000 compounds, 0.67% hits | AID 651661;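 active means mean inhibition of at least 50% after viability correction, with every replicate also passing that limit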;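 further: firefly luciferase signal divided by Alamar Blue viability fluorescence both relative to DMSO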
miR-122 sensor: inhibitors of miR-122 in Huh7 cells; activation (reporter increase), % at 12.5 µM; 340,000 compounds, 0.3% hits; Huh7 miR-122 Renilla luciferase sensor, 48 h; neutral wells = 0, positive control = 100;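 active means mean replicate activation score at least 90 and every replicate individually at or above 90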;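 further: higher luciferase means less miR-122 activity so hits act as miR-122 inhibitors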
UUG fidelity: alters start codon recognition fidelity in yeast. S. cerevisiae UUG-firefly luciferase reporter, luminescence/redox ratio. 350,000 tested, 0.13% active. activity score, % at 18.7 µM. AID 602363;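 active means replicate mean at a twofold rise or more, about +100% in these data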;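 further: firefly luciferase made from a UUG start codon reports start codon fidelity; reporter light over untreated wells divided by growth signal over untreated wells; some hits fall short of that in this replicate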
F508del corr: CFTR F508del correction in bronchial cells. CFBE cells, YFP halide quenching; stimulated with forskolin plus potentiator P3; % fluorescence drop versus neutral controls. activity (quench increase), % at 7.58 µM. 350,000 compounds, 0.36% hits;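 active means mean added fluorescence quench of at least 8% versus neutral control, with both replicates also reaching 8%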;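 further: cells transiently co-express mutant CFTR-F508del with the halide-sensitive YFP; corrector assay measuring rescue of mutant channel to the surface after 24 h compound exposure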
LGR2 antag: inhibitors of bursicon-induced Drosophila LGR2 receptor cAMP signaling | inhibition, % at 9.99 µM | HEK293 LGR2, CRE-luciferase, bursicon-stimulated, 4 h | AID 720647 | 380,000 compounds, 0.35% hits;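 active means drop in luminescence signal, shown as inhibition above about 50% in the replicate tests, limit read from the data, passing the limit was not always enough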;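 further: agonist challenge used bursicon conditioned medium at about half maximal strength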
PglD DTNB: inhibitors of Campylobacter jejuni PglD acetyltransferase. purified PglD enzyme, DTNB colorimetric CoA detection. 360,000 compounds, 0.098% hits. inhibition, % at 12.5 µM; in the data active means inhibition above about 16%, passing the limit was not always enough
Active calls of the source: *.

Screening COc1ccc(NC(=O)C2CCCN(CCCc3ccccc3)C2)cc1OCC(C)C (configuration not stated) returned EWS-Fli block 61*, miR-122 sensor -10, UUG fidelity 0, F508del corr -8, LGR2 antag 4 and PglD DTNB -2.
COc1ccc(NC(=O)C2CCCNC2)cc1OCC(C)C (configuration not stated) was read as miR-122 sensor 6, UUG fidelity -6 and PglD DTNB -3.
For O=C(Nc1nc2ccc(S(=O)(=O)N3CCCC3)cc2s1)C1CCCCC1 the results were miR-122 sensor 130*, UUG fidelity -4 and PglD DTNB 0.
For O=C(Nc1nc2ccc(S(=O)(=O)N3CCCCC3)cc2s1)C1CCCO1 (configuration not stated) the results were miR-122 sensor 70, UUG fidelity -7 and PglD DTNB 6.
Screening CC[n+]1ccc(/C=C2\Sc3ccccc3N2CCCS(=O)(=O)[O-])c2ccccc21 returned EWS-Fli block -3, miR-122 sensor 2, UUG fidelity -5, F508del corr 3, LGR2 antag 15 and PglD DTNB -6.
Screening CN1C=C/C(=C\c2cc[n+](C)c3ccccc23)c2ccccc21 returned EWS-Fli block 74*, miR-122 sensor 0, UUG fidelity 33, F508del corr 1, LGR2 antag 28 and PglD DTNB -17.
For Cc1cccc(NS(=O)(=O)c2cc3c(cc2C)n(C)c(=O)c(=O)n3C)c1 the results were EWS-Fli block 18, miR-122 sensor 3, UUG fidelity 4, F508del corr 4, LGR2 antag 2 and PglD DTNB 3.
Screening COc1ccc(C2=CC(=O)C[C@H](c3ccc(OC)cc3)C2)cc1 returned EWS-Fli block -50, miR-122 sensor -2, UUG fidelity -11, F508del corr 2, LGR2 antag -34 and PglD DTNB 3.
COc1ccc([C@H]2CC(=O)C=C(c3ccc(OC)cc3OC)C2)cc1 was read as EWS-Fli block 45, UUG fidelity -15, F508del corr 11*, LGR2 antag -28 and PglD DTNB 2.
`COC(=O)C(CC(C)C)Oc1ccc2c(C)cc(=O)oc2c1` (configuration not stated) gave miR-122 sensor 152*, UUG fidelity -5 and PglD DTNB 5.
Screening COc1ccc(Br)cc1CNC(=O)Nc1cccs1 returned miR-122 sensor 106*, UUG fidelity -18 and PglD DTNB 5.
Screening CN(C)c1ccc(C=c2c3cc([N+](=O)[O-])ccc3n3c2cc(-c2ccccc2)[n+]3C)cc1 returned EWS-Fli block 56*, miR-122 sensor -9, F508del corr 0 and LGR2 antag 43.
For COc1cc(C=c2c3ccccc3n3c2cc(-c2ccccc2)[n+]3C)cc(OC)c1OC the results were EWS-Fli block 8, F508del corr -2 and LGR2 antag 7.
`CN(C)c1ccc(C=c2c3ccccc3n3c2cc(-c2ccccc2)[n+]3C)cc1` gave EWS-Fli block -10, F508del corr -9 and LGR2 antag 91*.
For COc1cc(N(C)C)ccc1C=c1c2ccccc2n2c1cc(-c1ccccc1)[n+]2C the results were EWS-Fli block 36, miR-122 sensor -7, F508del corr -2 and LGR2 antag 79*.
`CN(C)c1ccc(C=c2c3ccccc3n3c2cc(-c2ccc(Cl)cc2)[n+]3C)cc1` gave EWS-Fli block 9, F508del corr 1 and LGR2 antag 29.
O=[N+]([O-])c1ccc(O)c(/C=N\N=C2c3ccccc3-c3ccccc32)c1 was read as LGR2 antag 47.
Screening COc1ccc(-c2c(-c3ccccc3)c(C(=O)C(=O)NCCCN(C)C)n3ccc4cc(OC)c(OC)cc4c23)cc1OC returned EWS-Fli block 86*, miR-122 sensor -38, UUG fidelity 10, F508del corr 1, LGR2 antag -6 and PglD DTNB -13.
For CN(C)CCNC(=O)C(=O)c1c(-c2ccccc2)cc2ccccn12 the results were EWS-Fli block -3, miR-122 sensor -3, UUG fidelity -12, F508del corr 1, LGR2 antag 16 and PglD DTNB 5.
Screening O=C(O)c1cc(N/N=C/C(Cl)=C/c2ccccc2)ccc1Cl returned EWS-Fli block 3, miR-122 sensor -10, UUG fidelity -54, F508del corr -4, LGR2 antag 73* and PglD DTNB 2.
O=C(O)c1ccc(N/N=C/c2cc3c(cc2[N+](=O)[O-])OCO3)cc1 was read as EWS-Fli block -4, miR-122 sensor -6, UUG fidelity -20, F508del corr -3, LGR2 antag -24 and PglD DTNB -4.
For O=C(O)c1ccc(N/N=C/c2cc3cc4c(cc3nc2Cl)OCCO4)cc1 the results were EWS-Fli block 44, miR-122 sensor 3, UUG fidelity 7, F508del corr -3, LGR2 antag 60* and PglD DTNB -3.
For O=C(O)c1cc(N/N=C/c2ccc3c(c2)OCCO3)ccc1Cl the results were EWS-Fli block 46, F508del corr 2 and LGR2 antag 71*.
`Cc1cc(C)nc(NC(=O)c2cc(-c3ccc4c(c3)OCO4)nc3ccccc23)c1` gave EWS-Fli block 2, miR-122 sensor 13, UUG fidelity -12, F508del corr -4, LGR2 antag -1 and PglD DTNB 6.

Three compounds from above, arranged by molecular weight, smallest number first.
For COc1cc(N(C)C)ccc1C=c1c2ccccc2n2c1cc(-c1ccccc1)[n+]2C the results were EWS-Fli block 36, miR-122 sensor -7, F508del corr -2 and LGR2 antag 79*.
Screening COc1ccc(NC(=O)C2CCCN(CCCc3ccccc3)C2)cc1OCC(C)C (configuration not stated) returned EWS-Fli block 61*, miR-122 sensor -10, UUG fidelity 0, F508del corr -8, LGR2 antag 4 and PglD DTNB -2.
For COc1cc(C=c2c3ccccc3n3c2cc(-c2ccccc2)[n+]3C)cc(OC)c1OC the results were EWS-Fli block 8, F508del corr -2 and LGR2 antag 7.

(continued)
For CC1CCc2c(sc(NC(=O)CSc3ncn[nH]3)c2C#N)C1 (configuration not stated) the results were EWS-Fli block 64*, miR-122 sensor 6, UUG fidelity -22, F508del corr 4, LGR2 antag 9 and PglD DTNB 2.
CC(C)(C)C1CCc2c(sc(NC(=O)CSc3ncn[nH]3)c2C#N)C1 (configuration not stated) was read as miR-122 sensor 54, UUG fidelity -19 and PglD DTNB 0.
COc1ccc(S(=O)(=O)Cc2ccc(C(=O)N3CCN(c4cccc(C)c4)C(C)C3)o2)cc1 (configuration not stated) was read as EWS-Fli block 26, miR-122 sensor 68, UUG fidelity -11, F508del corr 9.3*, LGR2 antag 1 and PglD DTNB -2.
Screening O=C(c1ccccc1)c1ccc(-c2ccc(O)cc2)cc1 returned EWS-Fli block 47, miR-122 sensor 92*, UUG fidelity -6, F508del corr 4, LGR2 antag -37 and PglD DTNB 6.
Screening O=C(c1ccccc1)c1ccccc1 returned EWS-Fli block -8, miR-122 sensor -8, UUG fidelity -12 and PglD DTNB 3.
Screening Cc1cc(O)c(C(C)C)cc1N=Nc1ccccc1C(=O)O returned EWS-Fli block -28, miR-122 sensor 190*, UUG fidelity -13, F508del corr -2, LGR2 antag -17 and PglD DTNB -5.
